{
  "sequences": {"note": "The chains behind the UniProt entries cited, without tags or fusion partners.", "UniProt Q00535, whole entry": "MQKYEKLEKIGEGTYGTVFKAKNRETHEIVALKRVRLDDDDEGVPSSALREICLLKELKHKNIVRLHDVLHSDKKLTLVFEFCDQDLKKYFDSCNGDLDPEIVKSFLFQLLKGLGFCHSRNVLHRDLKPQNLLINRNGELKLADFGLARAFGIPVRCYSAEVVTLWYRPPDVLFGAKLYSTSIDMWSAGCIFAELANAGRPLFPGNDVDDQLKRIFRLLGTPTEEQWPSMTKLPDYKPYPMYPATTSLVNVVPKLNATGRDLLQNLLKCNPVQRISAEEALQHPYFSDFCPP"},
  "source": "ChEMBL document CHEMBL5241090",
  "about": "“A comprehensive overview of β-carbolines and its derivatives as anticancer agents” (Eur J Med Chem, 2021)",
  "molecular_target": "Cyclin-dependent kinase 5/CDK5 activator 1 (Homo sapiens, UniProt Q00535)",
  "assay": "Inhibition of human CDK5/p25 nck5a",
  "assay_type": "protein-complex assay",
  "data": [
    {"smiles": "COc1ccc2c(c1)[nH]c1c(C)nccc12", "note": "[HARMINE]", "values": [
      {"measurement": "IC50", "result": 20, "unit": "µM"}
    ]}
  ]
}
